Laboratory results taken from ChEMBL document CHEMBL5247678, “Design, Synthesis, and Structure-Activity Relationships of Biaryl Anilines as Subtype-Selective PPAR-alpha Agonists” (ACS Med Chem Lett, 2023).

Sequences of proteins named here, by UniProt entry; tags and fusion partners are left off. A change or cut given only in a name is not applied to a line headed by its entry.
UniProt P37231: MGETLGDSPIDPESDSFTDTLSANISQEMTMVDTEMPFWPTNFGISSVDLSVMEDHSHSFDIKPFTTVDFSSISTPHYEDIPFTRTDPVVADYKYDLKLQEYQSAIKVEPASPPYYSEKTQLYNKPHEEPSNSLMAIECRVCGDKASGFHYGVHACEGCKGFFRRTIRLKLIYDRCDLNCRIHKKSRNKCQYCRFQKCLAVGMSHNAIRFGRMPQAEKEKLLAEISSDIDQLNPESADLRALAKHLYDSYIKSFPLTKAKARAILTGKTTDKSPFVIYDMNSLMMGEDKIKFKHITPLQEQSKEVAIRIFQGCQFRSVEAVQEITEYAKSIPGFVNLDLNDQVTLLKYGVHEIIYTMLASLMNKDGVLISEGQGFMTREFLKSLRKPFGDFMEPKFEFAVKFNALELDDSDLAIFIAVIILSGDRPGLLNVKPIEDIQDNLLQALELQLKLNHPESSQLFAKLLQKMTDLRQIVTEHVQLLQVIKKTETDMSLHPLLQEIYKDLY

Columns and labels:
[1] = molecular target: Peroxisome proliferator-activated receptor gamma (Homo sapiens) (UniProt P37231); assay: Agonist activity at human PPARgamma at 17 uM incubated for 22 to 24 hrs by luciferase assay relative to rosiglitazone; settings: time 22-24 hrs
[2] = molecular target: T1, Peroxisome proliferator-activated receptor delta (Homo sapiens) (UniProt Q03181); assay: Agonist activity at human PPARdelta at 17 uM incubated for 22 to 24 hrs by luciferase assay relative to GW0742; settings: time 22-24 hrs
T1 sequence (whole entry): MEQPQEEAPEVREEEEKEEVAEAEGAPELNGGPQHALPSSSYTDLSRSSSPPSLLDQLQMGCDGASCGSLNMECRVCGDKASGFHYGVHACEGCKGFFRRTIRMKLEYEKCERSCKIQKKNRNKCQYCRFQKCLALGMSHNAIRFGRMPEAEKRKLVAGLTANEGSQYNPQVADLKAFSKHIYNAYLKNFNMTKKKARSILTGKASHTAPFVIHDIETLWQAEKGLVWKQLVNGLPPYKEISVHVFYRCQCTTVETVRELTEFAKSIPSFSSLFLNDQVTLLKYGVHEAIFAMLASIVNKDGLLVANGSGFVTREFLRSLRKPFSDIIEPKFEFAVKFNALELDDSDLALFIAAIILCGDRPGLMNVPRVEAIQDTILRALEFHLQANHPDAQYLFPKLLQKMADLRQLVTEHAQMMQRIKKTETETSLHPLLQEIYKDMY

[3] = molecular target: T1, Peroxisome proliferator-activated receptor delta (Homo sapiens); assay: Agonist activity at human PPARdelta at 0.013 to 100 uM incubated for 22 to 24 hrs by luciferase assay relative to GW0742; settings: dose 0.013-100 µM, time 22-24 hrs
[4] = molecular target: Peroxisome proliferator-activated receptor gamma (Homo sapiens) (UniProt P37231); assay: Agonist activity at human PPARgamma at 0.013 to 100 uM incubated for 22 to 24 hrs by luciferase assay relative to rosiglitazone; settings: dose 0.013-100 µM, time 22-24 hrs

Activity [1] [%]	Activity [2] [%]	Activity [3] [%]	Activity [4] [%]	SMILES
		31.1	22.5	O=C(O)c1cc(F)cc(NCc2ccc(-c3ccc(C(F)(F)F)cc3)cc2)c1
		6.1	9.3	O=C(O)c1cc(F)cc(NCc2ccc(-c3ccc(OC(F)(F)F)cc3)cc2)c1

The next lines start with the molecule.

SMILES	Activity [1] [%]	Activity [2] [%]	Activity [3] [%]	Activity [4] [%]
O=C(O)c1cc(F)cc(NCc2ccc(-c3ccc(F)cc3)cc2)c1	11	12	12.1	11.2
O=C(O)c1cc(F)cc(NCc2ccc(-c3ccc(C(F)(F)F)cc3)nc2)c1			21.1	19.9
Cc1cc(CNc2cc(F)cc(C(=O)O)c2)ccc1-c1ccc(C(F)(F)F)cc1			25.1	35.7
